# scFv variants of Ab-14 (heavy chain) against a SARS-CoV-2 spike peptide

Antigen: PDVDLGDISGINAS, a 14-residue peptide of the SARS-CoV-2 spike HR2 region.

Parent: Ab-14, a human scFv built as VH, the linker GGGGSGGGGSGGGGS, VL. Only the CDRs of the heavy chain vary.
VH: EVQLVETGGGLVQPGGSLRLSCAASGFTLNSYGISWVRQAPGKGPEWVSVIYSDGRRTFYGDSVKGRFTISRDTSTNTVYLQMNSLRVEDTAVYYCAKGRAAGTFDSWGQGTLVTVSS
VL: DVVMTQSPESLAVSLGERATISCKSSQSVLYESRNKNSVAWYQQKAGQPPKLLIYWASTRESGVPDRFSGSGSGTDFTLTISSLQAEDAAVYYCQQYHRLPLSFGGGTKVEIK

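The starting antibody came from a phage panning campaign against this peptide. Designed CDR sequences, proposed from the first random library and measured here. Their group label is 14H_En_Gibbs (En: ensemble of fine-tuned language models; Gibbs: Gibbs sampling). AlphaSeq pools MATa yeast showing the antibodies with MATalpha yeast showing the peptide. Pairs that bind mate more often; barcode pairs of the diploids are counted by sequencing. Scores were corrected for input abundance and mapped to Kd with protein pairs of known affinity run in the same pool. The assay was run in six technical replicates.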

Each variant is given by its three heavy chain CDRs, as the data file delimits them; those of the parent are GFTLNSYGIS, VIYSDGRRTFYGDSVK, GRAAGTFDS.
Numbers give log10(Kd / nM), so 0 is 1 nM and 3 is 1 µM. Smaller is tighter.
A pair that was not seen in that replicate is written "ND"; this usually means weak binding, but a binder can also be missed.
A sequence measured in both rounds can read differently, since the two assays cover different ranges.
Of ten entries with the parent sequence, four were seen in most replicates (averages 0.34 to 2.37), three in one and three in none, so single entries are noisy.
In the paper, a design with two or fewer of six values counts as a poor binder.
Background: pairings of all heavy chain designs with three empty control strains gave a value in 1% of cases (median 2.08, 5th percentile 0.84). Values in that range, when seen in few replicates, are hard to tell from nonspecific mating. Also given: how often the same scFv was detected with the empty control strains, with their mean in brackets.

{"CDR-H1": "GFDVDEYGIS", "CDR-H2": "VIYADGKRVAYHDSFK", "CDR-H3": "GQNNKVSIV", "replicates, log10 nM": "ND ND ND ND ND ND", "control signals": "0 of 18"}
{"CDR-H1": "GFHLDEYGIS", "CDR-H2": "VIYADGKRVAYTNHVK", "CDR-H3": "GELEGGFVI", "replicates, log10 nM": "ND ND ND ND ND ND", "control signals": "0 of 18"}
{"CDR-H1": "GFNLSEYGIS", "CDR-H2": "VIYADGMRSNYADSFK", "CDR-H3": "GKSNNFFID", "replicates, log10 nM": "3.16 ND ND ND 0.88 ND", "control signals": "0 of 18"}
{"CDR-H1": "GFDLDEYGIS", "CDR-H2": "VIYADGIRTHYSNSVK", "CDR-H3": "GTIGGTFFQ", "replicates, log10 nM": "1.11 ND 0.63 0.93 ND 1.04", "control signals": "0 of 18"}
{"CDR-H1": "GFDLNEYGIS", "CDR-H2": "VIYADGMRVSYTNTVK", "CDR-H3": "GQNSMISAT", "replicates, log10 nM": "ND ND ND ND ND ND", "control signals": "1 of 18 (1.68)"}
{"CDR-H1": "GFDLDQYGIS", "CDR-H2": "VIYADGIRSYYADAVK", "CDR-H3": "GHEGGILYV", "replicates, log10 nM": "ND ND ND ND ND ND", "control signals": "0 of 18"}
{"CDR-H1": "GFDIEEYGIS", "CDR-H2": "VIYADGMRTVYSDSFK", "CDR-H3": "SGRTVNIDL", "replicates, log10 nM": "ND ND ND ND ND ND", "control signals": "0 of 18"}
{"CDR-H1": "GDGLQEYGIS", "CDR-H2": "VIYADGFRSSYANDVK", "CDR-H3": "GTNTGIFMV", "replicates, log10 nM": "ND ND ND ND ND ND", "control signals": "0 of 18"}
{"CDR-H1": "GFDINEYGVS", "CDR-H2": "VIYADGMRTAYTDSVK", "CDR-H3": "GEGAWIALV", "replicates, log10 nM": "ND ND ND ND ND 2.33", "control signals": "0 of 18"}
{"CDR-H1": "GFDINDYGIS", "CDR-H2": "VIYADGLRTSVSTNFK", "CDR-H3": "GIIAGTFTS", "replicates, log10 nM": "0.30 -0.22 -0.10 -0.32 0.81 -0.16", "control signals": "0 of 18"}
{"CDR-H1": "GDSLNEYGIS", "CDR-H2": "VIYADGRRSVYTDNVK", "CDR-H3": "GHAGGIFMS", "replicates, log10 nM": "ND ND ND ND ND ND", "control signals": "2 of 18 (1.33)"}
{"CDR-H1": "GMDLEEYGIS", "CDR-H2": "VIYADGMRTYAVDSVK", "CDR-H3": "GDQGGTLLY", "replicates, log10 nM": "ND ND ND ND ND ND", "control signals": "0 of 18"}
{"CDR-H1": "GFNLDEYGVS", "CDR-H2": "VIYADGKRCQYANTVK", "CDR-H3": "GELAGFFML", "replicates, log10 nM": "ND ND ND ND ND ND", "control signals": "0 of 18"}
{"CDR-H1": "EFDLNDYGIS", "CDR-H2": "VIYADGLRTAYVTNFK", "CDR-H3": "GINAGTFTS", "replicates, log10 nM": "ND ND ND ND ND ND", "control signals": "0 of 18"}
{"CDR-H1": "GFVLDEYGIS", "CDR-H2": "VIYADGMRTVYAEDFK", "CDR-H3": "GQTAGNFHH", "replicates, log10 nM": "ND ND ND ND ND ND", "control signals": "0 of 18"}
{"CDR-H1": "GFDLNEYGIS", "CDR-H2": "VIYADGRRYHYQDSVK", "CDR-H3": "GGVVGSVLY", "replicates, log10 nM": "ND ND ND ND ND ND", "control signals": "0 of 18"}
{"CDR-H1": "GFDLDEYGIS", "CDR-H2": "VIYADGLRQVYQDNVK", "CDR-H3": "GVGFTTFTD", "replicates, log10 nM": "ND ND ND ND ND ND", "control signals": "0 of 18"}
{"CDR-H1": "GNDLQEYGIS", "CDR-H2": "VIYADGQRVNAVSQVK", "CDR-H3": "GEQAGTFKL", "replicates, log10 nM": "ND ND ND ND ND ND", "control signals": "0 of 18"}
{"CDR-H1": "GFGLAEYGIS", "CDR-H2": "VIYADGQRKSYANKVK", "CDR-H3": "GRLSGTVIM", "replicates, log10 nM": "ND ND ND ND ND ND", "control signals": "0 of 18"}

The measurements come from Li et al. 2023 (doi:10.1038/s41467-023-39022-2) through the FLAb antibody collection.